PubChem BioAssay (EPA / NIEHS)
This is a selection; strong and weak results do not stand in their true shares. Results filed as inconclusive are left out. The source made the active and inactive calls. Rule for the calls: active = hit-call score of the fitted dose curve at least 0.9, where 1 is the maximum; inconclusive = response in the unintended direction; inactive = score below 0.9.

Chains of the proteins cited; added tags and fusions are not shown. Lines headed by an entry give the natural chain unless they say otherwise; changes in a name come on top.
UniProt Q01717: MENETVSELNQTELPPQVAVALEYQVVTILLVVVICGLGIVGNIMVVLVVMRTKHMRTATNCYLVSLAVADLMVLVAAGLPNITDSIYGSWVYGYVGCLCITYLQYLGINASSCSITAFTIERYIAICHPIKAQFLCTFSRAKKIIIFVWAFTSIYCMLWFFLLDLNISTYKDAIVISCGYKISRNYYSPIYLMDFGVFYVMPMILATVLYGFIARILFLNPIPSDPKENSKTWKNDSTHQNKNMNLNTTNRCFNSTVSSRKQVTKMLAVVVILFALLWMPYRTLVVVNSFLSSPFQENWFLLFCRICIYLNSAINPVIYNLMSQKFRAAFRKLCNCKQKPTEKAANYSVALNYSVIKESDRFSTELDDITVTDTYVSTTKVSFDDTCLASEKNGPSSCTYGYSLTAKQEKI

target: rat Thyrotropin Releasing Hormone Receptor (TRH), Trhr (gene 25570) (UniProt Q01717); experiment: NVS_GPCR_rTRH: NovaScreen (NVS) G Protein-Coupled Receptor Assay for rat Thyrotropin Releasing Hormone Receptor (TRH) (AID 2283329);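 note: hit means lower bound tracer signal versus DMSO baseline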
How it was run: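 Rat forebrain membrane prep, radioligand displacement, filter scintillation readout at 4 h. Single conc 25 uM, duplicate; actives retested as concentration series. DMSO = negative control/baseline.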

Row | SMILES | outcome
1 | O=C1C2CC=CCC2C(=O)N1SC(Cl)(Cl)C(Cl)Cl (stereo not drawn) | inactive
2 | O=[P+](Oc1ccccc1)Oc1ccccc1 | inactive
3 | CC(C)CCCCCCCOP(OCCCCCCCC(C)C)Oc1ccccc1 | inactive
